The source of these data is patent US20200262914A1 (MIT, published 2020).

The chains behind the UniProt entries cited, without tags or fusion partners. Residues count along the entry.
UniProt Q07817, 1-209 limits assumed: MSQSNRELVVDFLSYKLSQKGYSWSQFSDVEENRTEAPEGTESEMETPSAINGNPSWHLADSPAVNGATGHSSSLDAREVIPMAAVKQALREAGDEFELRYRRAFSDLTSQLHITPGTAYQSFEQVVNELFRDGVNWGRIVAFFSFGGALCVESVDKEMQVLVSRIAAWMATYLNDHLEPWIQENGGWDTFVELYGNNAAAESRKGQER

For orientation: Ki means a measure of affinity in units of concentration, obtained from inhibition or displacement. Higher therefore signals a looser hold on the target.

In this experiment the target is T1, human Bcl-xL (residues 1-209) (human, UniProt Q07817 1-209).
T1 construct: range 1-209
The experiment in a line: competition FP vs fluoresceinated Bim BH3, solution.

B1: Puma (peptide)
peptide: QWAREIGAQLRRMADDLNAQYER
modifications: N-terminal acetylation; C-terminal amidation
notes: also called Puma BH3 peptide
The molecule B1 yielded a Ki of 1 nM.
